Reference: patent US20220371988A1, “TRPV1 AGONIST AND PREPARATION METHOD THEREFOR AND USE THEREOF” (NANJING DELOVA BIOTECH CO. LTD., priority 2019, published 2022)

Legend:
[1] = test system: rats as models of pain after incision; assay: Thermal hyperalgesia test (Hargreaves method) in rats as models of pain after incision; type: in vivo, SD rat; details: for Time after surgery at which thermal withdrawal latency (TWL) was increased vs blank preparation group (P<0.05): injection at incision site
[2] = test system: rats as models of pain after incision; assay: Mechanical allodynia test (Von Frey method) in rats as models of pain after incision; type: in vivo, SD rat
[3] = Clinical compatibility stability; details: for Character: 0-8 h
[4] = Determination of solubility in water; details: 10 mg, water added in 0.1 mL portions, sonicated 5 min
[5] = test system: nasal mucosa and perinasal skin of the rats; assay: Irritation test (2): nasal administration to rats; details: for Nasal scratching: times within 0-10 min / Nasal scratching: times within 10-30 min / Sneezing: times within 0-30 min / Sneezing: times within 10-30 min / Nasal cavity and nasal periphery: redness and swelling score: n = 4, X ± SD, 10 μL nasal; for Eye closure symptom / Hypokinesia symptom: rats, 10 μL into left nostril, observed 30 min, A-17 16.67 mg/mL, parent 10 mg/mL (equimolar); for Nasal cavity and nasal periphery: redness and swelling score: score 0-3
[6] = HD group: A-17 0.6 mg/animal, parent 0.36 mg/animal
[7] = LD group: A-17 0.15 mg/animal, parent 0.09 mg/animal
[8] = 0.9% sodium chloride injection (25° C.), 0 h
[9] = 0.9% sodium chloride injection (25° C.), 1 h
[10] = 0.9% sodium chloride injection (25° C.), 2 h
[11] = 0.9% sodium chloride injection (25° C.), 4 h
[12] = 0.9% sodium chloride injection (25° C.), 6 h
[13] = 0.9% sodium chloride injection (25° C.), 8 h
[14] = Glucose injection (25° C.), 0 h
[15] = Glucose injection (25° C.), 1 h
[16] = Glucose injection (25° C.), 2 h
[17] = Glucose injection (25° C.), 4 h
[18] = Glucose injection (25° C.), 6 h
[19] = Glucose injection (25° C.), 8 h

Compound: CCN(CC)CC(=O)Oc1ccc(CNC(=O)CCCC/C=C/C(C)C)cc1OC
- Effect on overall thermal hyperalgesia (AUC of time-TWL curve) within 7 days vs blank preparation ([1]; HD group: A-17 0.6 mg/animal (P<0.001), parent 0.36 mg/animal (P<0.01)): can effectively relieve the overall thermal hyperalgesia
- Duration of analgesic effect on thermal hyperalgesia [1, 6]: 4 days
- Time after surgery at which thermal withdrawal latency (TWL) was increased vs blank preparation group (P<0.05) [1, 6]: 1 to 96 h
- Duration of analgesic effect on thermal hyperalgesia ([1]; LD group: A-17 0.15 mg/animal): 1 days
- Effect on overall thermal hyperalgesia (AUC of time-TWL curve) within 7 days vs blank preparation [1, 7]: no significant effect
- Time after surgery at which thermal withdrawal latency (TWL) was increased vs blank preparation group (P<0.05) [1, 7]: 1 to 24 h
- Duration of analgesic effect on thermal hyperalgesia ([1]; MD group: A-17 0.3 mg/animal): 3 days
- Effect on overall thermal hyperalgesia (AUC of time-TWL curve) within 7 days vs blank preparation ([1]; MD group: A-17 0.3 mg/animal (P<0.001)): can effectively relieve the overall thermal hyperalgesia
- Duration of analgesic effect on mechanical allodynia ([2]; HD group: A-17 0.6 mg/animal): 2 days
- Time after surgery at which paw withdrawal threshold (PWT) was increased vs blank preparation group (P<0.05) [2, 7]: 1 h
- Duration of analgesic effect on mechanical allodynia ([2]; MD group: A-17 0.3 mg/animal, starts at 24 h after surgery): 1 days
- Related substances: Capsaicine [3, 8]: 2.57
- Related substances: Total impurities [3, 8]: 6.25
- pH [3, 8]: 3.39
- Character ([3]; 0.9% sodium chloride injection (25° C.)): Clear liquid
- Related substances: Capsaicine [3, 9]: 3.22
- Related substances: Total impurities [3, 9]: 6.9
- pH [3, 9]: 3.38
- Related substances: Capsaicine [3, 10]: 3.84
- Related substances: Total impurities [3, 10]: 7.52
- pH [3, 10]: 3.37
- Related substances: Capsaicine [3, 11]: 4.95
- Related substances: Total impurities [3, 11]: 8.59
- pH [3, 11]: 3.34
- Related substances: Capsaicine [3, 12]: 6.1
- Related substances: Total impurities [3, 12]: 9.77
- pH [3, 12]: 3.31
- Related substances: Capsaicine [3, 13]: 7.22
- Related substances: Total impurities [3, 13]: 10.89
- Related substances: Capsaicine [3, 14]: 2.69
- Related substances: Total impurities [3, 14]: 6.46
- pH [3, 14]: 3.30
- Character ([3]; Glucose injection (25° C.)): Clear liquid
- Related substances: Capsaicine [3, 15]: 3.64
- Related substances: Total impurities [3, 15]: 7.41
- pH [3, 15]: 3.31
- Related substances: Capsaicine [3, 16]: 4.24
- Related substances: Total impurities [3, 16]: 8.00
- pH [3, 16]: 3.28
- Related substances: Capsaicine [3, 17]: 5.62
- Related substances: Total impurities [3, 17]: 9.38
- pH [3, 17]: 3.26
- Related substances: Capsaicine [3, 18]: 6.94
- Related substances: Total impurities [3, 18]: 10.7
- pH [3, 18]: 3.21
- Related substances: Capsaicine [3, 19]: 8.32
- Related substances: Total impurities [3, 19]: 12.02
- Solubility ([4]; hydrochloride): 244 mg/mL (≈ 583 mM)
- Solubility ([4]; oxalate): 175 mg/mL (≈ 418 mM)
- Nasal scratching: times within 0-10 min [5]: 13.50 ± 3.87
- Nasal scratching: times within 10-30 min [5]: 12.50 ± 7.19
- Sneezing: times within 0-30 min [5]: 7.50 ± 4.20
- Sneezing: times within 10-30 min [5]: 1.75 ± 0.96
- Eye closure symptom [5]: no eye closure or hypokinesia was observed
- Hypokinesia symptom [5]: no eye closure or hypokinesia was observed
- Nasal cavity and nasal periphery: redness and swelling score [5]: 0.75 ± 0.50

Compound: COc1cc(CNC(=O)CCCC/C=C/C(C)C)ccc1OC(=O)CN(C)C
- Solubility [4]: 70 mg/mL (≈ 179 mM)

Compound: COc1cc(CNC(=O)CCCC/C=C/C(C)C)ccc1O [trans-8-methyl-N-vanillyl-6-nonenamide]
- Nasal scratching: times within 0-10 min [5]: 6.50 ± 4.36
- Nasal scratching: times within 10-30 min [5]: 19.25 ± 9.88
- Sneezing: times within 0-30 min [5]: 8.75 ± 44.65
- Sneezing: times within 10-30 min [5]: 7.25 ± 9.88
- Eye closure symptom [5]: eye closure symptom that lasts for about 1.4 min was observed in 1 rat
- Hypokinesia symptom [5]: Hypokinesia symptom that lasts for 3-12 min was observed in 3 of the 4 rats
- Nasal cavity and nasal periphery: redness and swelling score [5]: 2.25 ± 0.50

In brackets after ≈: the same amount, converted by molar mass.
